For 31 molecules, IC50 results are on record in patent US9216999B2, “Substituted pyrrolo[2,3-h][1,6]naphthyridines and compositions thereof as JAK inhibitors” (priority 2011, dated 2015).

Chains of the proteins cited; added tags and fusions are not shown. Lines headed by an entry give the natural chain unless they say otherwise; changes in a name come on top.
UniProt P52333: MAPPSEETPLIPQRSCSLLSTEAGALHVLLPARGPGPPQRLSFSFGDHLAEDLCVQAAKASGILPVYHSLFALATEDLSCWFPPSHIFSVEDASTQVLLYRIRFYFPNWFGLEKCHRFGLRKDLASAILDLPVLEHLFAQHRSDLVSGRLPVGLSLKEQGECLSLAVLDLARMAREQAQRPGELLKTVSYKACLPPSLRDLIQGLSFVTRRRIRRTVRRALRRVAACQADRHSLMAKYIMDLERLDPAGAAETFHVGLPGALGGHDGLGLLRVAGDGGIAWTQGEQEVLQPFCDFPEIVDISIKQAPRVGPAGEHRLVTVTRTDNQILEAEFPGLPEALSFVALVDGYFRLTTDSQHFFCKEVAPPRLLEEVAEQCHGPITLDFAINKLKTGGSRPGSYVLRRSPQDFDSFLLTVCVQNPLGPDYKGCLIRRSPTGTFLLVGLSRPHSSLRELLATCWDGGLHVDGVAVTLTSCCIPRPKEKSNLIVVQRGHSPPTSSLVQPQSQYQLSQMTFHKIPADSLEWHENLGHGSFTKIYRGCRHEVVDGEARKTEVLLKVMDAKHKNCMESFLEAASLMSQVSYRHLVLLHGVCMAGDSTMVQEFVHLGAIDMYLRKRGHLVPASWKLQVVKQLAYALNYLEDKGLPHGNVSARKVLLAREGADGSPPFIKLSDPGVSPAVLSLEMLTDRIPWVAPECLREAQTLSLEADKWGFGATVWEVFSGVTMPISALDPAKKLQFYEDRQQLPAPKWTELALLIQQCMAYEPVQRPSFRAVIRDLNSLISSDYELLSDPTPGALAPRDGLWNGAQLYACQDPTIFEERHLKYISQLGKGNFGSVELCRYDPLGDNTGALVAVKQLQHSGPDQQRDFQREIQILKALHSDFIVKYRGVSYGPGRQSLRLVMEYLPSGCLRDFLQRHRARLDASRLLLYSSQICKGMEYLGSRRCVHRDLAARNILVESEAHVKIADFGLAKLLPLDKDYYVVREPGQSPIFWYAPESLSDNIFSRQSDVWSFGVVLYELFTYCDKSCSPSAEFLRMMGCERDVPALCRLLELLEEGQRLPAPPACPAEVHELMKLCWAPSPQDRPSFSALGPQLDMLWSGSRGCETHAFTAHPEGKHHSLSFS
UniProt P29597: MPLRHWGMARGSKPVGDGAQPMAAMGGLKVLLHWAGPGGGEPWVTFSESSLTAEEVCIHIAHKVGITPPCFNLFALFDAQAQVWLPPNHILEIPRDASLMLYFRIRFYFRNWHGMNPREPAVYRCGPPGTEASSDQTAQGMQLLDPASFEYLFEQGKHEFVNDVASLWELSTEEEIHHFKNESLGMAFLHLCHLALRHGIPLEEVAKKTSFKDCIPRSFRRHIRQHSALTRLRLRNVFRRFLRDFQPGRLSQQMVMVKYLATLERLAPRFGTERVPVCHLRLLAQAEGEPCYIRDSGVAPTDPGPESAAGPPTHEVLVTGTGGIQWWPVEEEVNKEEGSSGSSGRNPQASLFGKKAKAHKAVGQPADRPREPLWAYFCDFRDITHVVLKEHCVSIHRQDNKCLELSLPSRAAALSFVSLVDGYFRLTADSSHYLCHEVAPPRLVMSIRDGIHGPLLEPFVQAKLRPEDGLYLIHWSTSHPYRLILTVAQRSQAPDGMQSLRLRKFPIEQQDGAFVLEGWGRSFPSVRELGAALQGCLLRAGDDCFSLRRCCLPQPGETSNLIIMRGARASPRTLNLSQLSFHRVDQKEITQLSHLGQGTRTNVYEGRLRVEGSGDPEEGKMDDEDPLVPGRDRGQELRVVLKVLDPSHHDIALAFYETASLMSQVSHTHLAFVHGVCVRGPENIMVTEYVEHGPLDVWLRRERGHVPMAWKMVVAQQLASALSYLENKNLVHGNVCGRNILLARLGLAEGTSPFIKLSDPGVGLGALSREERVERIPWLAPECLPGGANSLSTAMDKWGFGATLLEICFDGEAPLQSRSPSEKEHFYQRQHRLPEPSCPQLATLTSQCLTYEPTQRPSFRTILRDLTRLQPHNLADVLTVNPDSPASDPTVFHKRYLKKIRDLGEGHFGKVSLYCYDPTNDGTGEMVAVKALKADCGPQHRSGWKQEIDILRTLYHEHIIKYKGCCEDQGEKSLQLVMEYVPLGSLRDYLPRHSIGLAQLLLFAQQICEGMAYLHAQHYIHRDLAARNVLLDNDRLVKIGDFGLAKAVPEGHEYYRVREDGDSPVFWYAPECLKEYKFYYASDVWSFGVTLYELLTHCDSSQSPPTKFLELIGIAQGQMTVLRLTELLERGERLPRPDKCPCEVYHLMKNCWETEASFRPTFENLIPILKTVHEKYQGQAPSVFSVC

SMILES strings stand for the structures.

Assay [1] deals with T1, JAK3 (Homo sapiens (Human), UniProt P52333). Description: JAK3 enzyme assay (Assay Example^b 1).
Assay [2] deals with T2, Tyk2 (Homo sapiens (Human), UniProt P29597). The assay is described as follows: Tyk2 enzyme assay (Assay Example^b 1).
Another assay concerns the target JAK1 (Homo sapiens (Human), UniProt P23458). Description: JAK1 enzyme assay (Assay Example^b 1).
Assay [3] addresses T3, JAK2 (Homo sapiens (Human), UniProt O60674). Description: JAK2 enzyme assay (Assay Example^b 1).
Assay [4] addresses T3, JAK2. The assay is described as follows: Enzyme assay (Assay Example^a 1), JAK2. It is filed as biochemical. To be noted: read-out: IC50 (μM) JAK2.
Assay [5] concerns the target T2, Tyk2. Description: Enzyme assay (Assay Example^a 1), Tyk2. To be noted: ATP 100 μM, read-out: IC50 (μM) TYK2. It is filed as biochemical.
Assay [6] has as its target T1, JAK3. Description: Enzyme assay (Assay Example^a 1), JAK3. It is filed as biochemical.
Setting [7] is: IC50 (μM) JAK3, Table^b 80, ATP 100 μM.
[8] abbreviates: IC50 (μM) TYK2, Table^b 80, ATP 100 μM.
[9] abbreviates: IC50 (μM) JAK1, Table^b 80, ATP 100 μM.
Where [10] appears, read: IC50 (μM) JAK2, Table^b 80, ATP 100 μM.
The mark [11] stands for this setting: IC50 (μM) TYK2, Table^b 79, ATP 100 μM.
Setting [12] is: IC50 (μM) JAK1, Table^b 78, ATP 100 μM.

`C[C@@H]1CCN(C(=O)Nc2ccccc2C(F)(F)F)C[C@@H]1n1ccc(=O)c2cnc3[nH]ccc3c21` (racemic) [compound 28]: the IC50 was 2.3 µM against JAK3 [1] (setting [7]), 7.9 µM at Tyk2 [2] (setting [8]), 0.31 µM against JAK1 (setting [9]) and 2 µM on JAK2 [3] (setting [10]).
For the molecule `C[C@@H]1CCN(Cc2cccc(C(F)(F)F)c2)C[C@@H]1n1ccc(=O)c2cnc3[nH]ccc3c21` (racemic) [compound 39], the IC50 at Tyk2 [2] (setting [8]) is > 1 µM; at JAK1 (setting [9]), 0.048 µM; against JAK2 [3] (setting [10]), 0.15 µM.
Regarding `C[C@@H]1CCN(Cc2ccc(C#N)cc2)C[C@@H]1n1ccc(=O)c2cnc3[nH]ccc3c21` (racemic) [compound 44], the IC50 was 0.057 µM on JAK3 [1] (setting [7]), 0.84 µM on Tyk2 [2] (setting [8]), 0.014 µM at JAK1 (setting [9]) and 0.15 µM on JAK2 [3] (setting [10]).
Turning to `C1=NCc2cnc3[nH]ccc3c2N1C1CCCCC1` [compound 19], the IC50 turned out to be 2.2 µM against JAK3 [1] (IC50 (μM) JAK3, Table^b 78, ATP 100 μM); 1.5 µM against Tyk2 [2] (setting [11]); 0.29 µM against JAK1 (setting [12]); 1.3 µM against JAK2 [3] (IC50 (μM) JAK2, Table^b 79, ATP 100 μM).
As for `C[C@@H]1CCN(C(=O)OCc2ccccc2)C[C@@H]1n1ccc(=O)c2cnc3[nH]ccc3c21` (racemic) [compound 35], the figures for the IC50 at Tyk2 [2] (setting [8]), against JAK1 (setting [9]) and on JAK2 [3] (setting [10]) were 0.99 µM, 0.018 µM and 0.089 µM, respectively.
As to `Cc1cc(NC(=O)N2CCC(c3nnn4cnc5[nH]ccc5c34)CC2)sn1` [compound 31], the results for the IC50 on JAK2 [4] and at Tyk2 [5] (Table^a 154) were 0.21 µM and > 1 µM, respectively.
Consider `OC[C@H]1CC[C@H](c2nnn3cnc4[nH]ccc4c23)CC1` [compound 10], for which the IC50 at JAK3 [6] (read-out: IC50 (μM) JAK3) amounted to 0.19 µM; on Tyk2 [5], 0.037 µM.
With `c1cc2c(ncn3nnc(C4CCC(NCCN5CCOCC5)CC4)c23)[nH]1` (centres unmarked) [compound 126], the IC50 on JAK2 [4] and on Tyk2 [5] (Table^a 154) was > 1 µM each time.
As for `C[C@@H]1CCN(Cc2ccc(C(F)(F)F)cc2)C[C@@H]1n1ccc(=O)c2cnc3[nH]ccc3c21` (racemic) [compound 40], the IC50 at JAK3 [1] (setting [7]) is 0.26 µM; against Tyk2 [2] (IC50 (μM) TYK2) it was > 1 µM; against JAK1 (IC50 (μM) JAK1), 0.088 µM; against JAK2 [3] (IC50 (μM) JAK2), 0.5 µM.
`OC(CN[C@H]1CC[C@H](c2nnn3cnc4[nH]ccc4c23)CC1)c1ccccc1` (mixture of isomers) [202b, 2-{[trans-4-(7H-pyrrolo[3,2-e][1,2,3]triazolo[1,5-c]pyrimidin-1-yl)cyclohexyl]amino}-1-phenylethanol] came in with an IC50 against JAK3 [6] of 0.68 µM.
As to `C[C@@H]1CCN(Cc2ccccc2)C[C@@H]1n1ccc(=O)c2cnc3[nH]ccc3c21` (racemic) [compound 4], the IC50 on Tyk2 [2] (setting [11]) is > 1 µM; against JAK1 (setting [12]), 0.03 µM; against JAK2 [3] (IC50 (μM) JAK2), 0.1 µM.
As to `C[C@@H]1CCN(C(=O)c2cccc(C(F)(F)F)c2)C[C@@H]1n1ccc(=O)c2cnc3[nH]ccc3c21` (racemic) [compound 31], the IC50 at Tyk2 [2] (setting [8]) is > 1 µM; at JAK1 (setting [9]), 0.24 µM; at JAK2 [3] (setting [10]), > 1 µM.
Regarding `O=c1ccn(C2CCN(Cc3ccc(F)c(F)c3)CC2)c2c1cnc1[nH]ccc12` [compound 74], the IC50 came out at 0.86 µM against JAK3 [1] (setting [7]), 0.84 µM against Tyk2 [2] (setting [8]), 0.005 µM at JAK1 (setting [9]) and 0.069 µM on JAK2 [3] (setting [10]).
For the molecule `O=c1ccn(C2CCN(Cc3ccc4[nH]ccc4c3)CC2)c2c1cnc1[nH]ccc12` [compound 85], the IC50 was > 1 µM on Tyk2 [2] (setting [8]), 0.075 µM on JAK1 (setting [9]) and 0.68 µM on JAK2 [3] (setting [10]).
With `c1ccc(CN2CCC(c3nnn4cnc5[nH]ccc5c34)CC2)cc1` [compound 32], the IC50 on JAK2 [4] stood at 0.036 µM; at Tyk2 [5] (Table^a 154) it was 0.99 µM.
As to `N#Cc1ccc(CNC[C@H]2CC[C@H](c3nnn4cnc5[nH]ccc5c34)CC2)cc1` [compound 93], the figures for the IC50 on JAK2 [4] and at Tyk2 [5] (Table^a 154) were 0.061 µM and 0.0059 µM, respectively.
With `OC(CN[C@H]1CC[C@H](c2nnn3cnc4[nH]ccc4c23)CC1)(c1ccccc1)C(F)(F)F` (mixture of isomers) [196b, 3-{[trans-4-(7H-pyrrolo[3,2-e][1,2,3]triazolo[1,5-c]pyrimidin-1-yl)cyclohexyl]amino}-1,1,1-trifluoro-2-phenylpropan-2-ol], the IC50 against JAK3 [6] came out at 0.29 µM.
Consider `FC(F)(F)c1ccc(NC2CCC(c3nnn4cnc5[nH]ccc5c34)CC2)cc1` (centres unmarked) [compound 128], for which the IC50 at JAK3 [6] (read-out: IC50 (μM) JAK3) is > 1 µM.
With `O=c1ccn(C2CCN(Cc3ccc([N+](=O)[O-])o3)CC2)c2c1cnc1[nH]ccc12` [compound 72], the IC50 against Tyk2 [2] (setting [8]) worked out at 0.88 µM; at JAK1 (setting [9]) it was 0.0098 µM; against JAK2 [3] (setting [10]) it was 0.33 µM.
Take `c1cc(CN2CCC(c3nnn4cnc5[nH]ccc5c34)CC2)[nH]n1` [compound 151]: the IC50 was 0.072 µM on JAK2 [4] and > 1 µM at Tyk2 [5] (Table^a 154).
As to `O=c1[nH]c(=O)n([C@H]2CC[C@H](CNCCN3CCOCC3)CC2)c2c1cnc1[nH]ccc12` [compound 123], the IC50 on JAK3 [1] (IC50 (μM) JAK3, ATP 100 μM) is > 1 µM; on Tyk2 [2] (IC50 (μM) TYK2, ATP 100 μM), > 1 µM; at JAK2 [3] (IC50 (μM) JAK2, ATP 100 μM) it was > 1 µM.
Regarding `O=c1ccn(C2CCN(Cc3ccc(Cl)c(Cl)c3)CC2)c2c1cnc1[nH]ccc12` [compound 75], the concentration for half-maximal inhibition (IC50) at Tyk2 [2] (setting [8]) is > 1 µM; at JAK1 (setting [9]), 0.0089 µM; on JAK2 [3] (setting [10]), 0.062 µM.
Regarding `C[C@@H]1CCN(C(=O)c2ccccc2C(F)(F)F)C[C@@H]1n1ccc(=O)c2cnc3[nH]ccc3c21` (racemic) [compound 30], the IC50 against Tyk2 [2] (setting [8]) was > 1 µM; against JAK1 (setting [9]), 0.18 µM; on JAK2 [3] (setting [10]), > 1 µM.
`OC(CNC[C@H]1CC[C@H](c2nnn3cnc4[nH]ccc4c23)CC1)c1ccccc1` (mixture of isomers) [compound 186, 2-({[trans-4-(7H-pyrrolo[3,2-e][1,2,3]triazolo[1,5-c]pyrimidin-1-yl)cyclohexyl]methyl}amino)-1-phenylethanol]: the IC50 against JAK3 [6] was determined as 0.099 µM.
As for `O=c1ccn(C2CCN(Cc3ccc(Cl)s3)CC2)c2c1cnc1[nH]ccc12` [compound 55], the values for the IC50 against Tyk2 [2] (setting [8]), against JAK1 (setting [9]) and at JAK2 [3] (setting [10]) were 0.22 µM, 0.0012 µM and 0.02 µM, respectively.
`c1cc2c(ncn3nnc(C4CCCNC4)c23)[nH]1` (racemic) [compound 15] showed an IC50 against JAK3 [6] of 4.3 µM.
Turning to `CCC(C)CN1CCC(n2c(=O)[nH]c(=O)c3cnc4[nH]ccc4c32)CC1` (racemic) [compound 92], the IC50 on Tyk2 [2] (IC50 (μM) TYK2, ATP 100 μM) was > 1 µM; on JAK2 [3] (IC50 (μM) JAK2, ATP 100 μM) it was > 1 µM.
For the molecule `OC(CN1CCC(c2nnn3cnc4[nH]ccc4c23)CC1)c1ccc(C(F)(F)F)cc1` (racemic) [compound 212, 2-[4-(7H-Pyrrolo[3,2-e][1,2,3]triazolo[1,5-c]pyrimidin-1-yl)piperidin-1-yl]-1-[4-(trifluoromethyl)phenyl]ethanol], the IC50 at JAK3 [6] was 0.62 µM.
On the same count and under the same terms, next, `OC(CN[C@H]1CC[C@@H](c2nnn3cnc4[nH]ccc4c23)CC1)(c1ccccc1)C(F)(F)F` (mixture of isomers) [196a, 3-{[cis-4-(7H-pyrrolo[3,2-e][1,2,3]triazolo[1,5-c]pyrimidin-1-yl)cyclohexyl]amino}-1,1,1-trifluoro-2-phenylpropan-2-ol]: > 1 µM.
On to `CCOC(=O)N1CC[C@@H](C)[C@@H](n2ccc(=O)c3cnc4[nH]ccc4c32)C1` (racemic) [compound 27], for which the IC50 on JAK3 [1] (setting [7]) turned out to be 0.042 µM; on Tyk2 [2] (IC50 (μM) TYK2) it was 0.43 µM; against JAK1 (IC50 (μM) JAK1) it was 0.018 µM; against JAK2 [3] (IC50 (μM) JAK2), 0.04 µM.
Consider `Fc1ccc(CN2CCC(c3nnn4cnc5[nH]ccc5c34)CC2)cc1C(F)(F)F` [compound 154], for which the IC50 on JAK2 [4] amounted to 0.024 µM; on Tyk2 [5] (Table^a 154) it was 0.7 µM.
